## Apparent affinities of Ab-14 variants for a coronavirus HR2 peptide

The measurements come from Li et al. 2023 (doi:10.1038/s41467-023-39022-2) through the FLAb antibody collection.

Binding partner: SARS-CoV-2 spike HR2 peptide, sequence PDVDLGDISGINAS.

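This is the validation round: designs drawn from the data on random variants, tested in the same kind of assay. Group labels follow the data file (Ctrl: baseline library sampled from a position-specific scoring matrix, with some repeated check sequences; GPLM: also part of the Gaussian process libraries; Gen: genetic algorithm; a sequence that several methods proposed may carry one label only). The scFvs were displayed on barcoded MATa yeast, the peptide on MATalpha yeast. Binding brings cells together so that they mate, and sequencing counts the barcode pairs among the diploids. Read counts were normalised to the haploid input and turned into Kd by a linear fit to BCL2-family pairs of known affinity, for each replicate. Each pool was mated in six replicate cultures.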

Each scFv is VH, a 15-residue (Gly4Ser)3 linker, VL, as in the parent Ab-14, and differs from it in the CDRs of the heavy chain only.
VH: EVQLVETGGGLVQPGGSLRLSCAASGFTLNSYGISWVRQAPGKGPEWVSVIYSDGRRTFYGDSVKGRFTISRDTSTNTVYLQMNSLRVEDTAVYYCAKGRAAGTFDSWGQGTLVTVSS
VL: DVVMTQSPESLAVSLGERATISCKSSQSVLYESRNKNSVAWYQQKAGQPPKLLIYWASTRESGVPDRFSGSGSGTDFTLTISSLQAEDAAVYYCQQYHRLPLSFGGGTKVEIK

Substitutions are numbered in sequence along the VH above, starting at 1 (not Kabat).
The read-out is the apparent dissociation constant on a log10 scale (nM): the lower, the stronger.
An entry "nd" has no value in the source: the pair was not observed among the diploids in that replicate. This suggests poor binding but is not conclusive.
The authors' rule: three or more of the six replicates give a measured affinity, fewer mean a poor binder.

| changes | group | replicates, log10 nM | control signals |
|---|---|---|---|
| S53A G61A F105S | Ctrl | nd / nd / 1.88 / nd / nd / nd | 1 of 18 (2.47) |
| T28M S107Q | Ctrl | nd / nd / nd / nd / nd / nd | 0 of 18 |
| G26K V64E S107T | Ctrl | 1.24 / nd / nd / nd / nd / nd | 0 of 18 |
| Y32H I34R A102S | Ctrl | nd / nd / 3.21 / nd / nd / nd | 0 of 18 |
| S31L S53A R56Q G103L | Ctrl | nd / nd / nd / nd / nd / nd | 0 of 18 |
| S53R R56F F59A G61S S63R | Ctrl | nd / nd / nd / nd / nd / nd | 0 of 18 |
| T28N F59A R100S | Ctrl | nd / nd / nd / nd / nd / nd | 0 of 18 |
| S31D Y60M G99W | Ctrl | nd / 1.56 / 2.29 / 2.87 / 0.68 / 1.50 | 2 of 18 (2.38) |
| G61A A102T S107W | Ctrl | nd / nd / nd / nd / nd / nd | 0 of 18 |
| S53A G61M A102G D106S S107K | Ctrl | nd / nd / nd / nd / nd / nd | 0 of 18 |
| T28D G99Q S107W | Ctrl | 1.70 / 1.11 / 1.09 / 0.89 / 1.00 / 2.10 | 0 of 18 |
| K65F A101W | Ctrl | nd / nd / nd / nd / nd / nd | 0 of 18 |
| T28N S31E T104A S107G | Ctrl | nd / nd / nd / nd / nd / nd | 0 of 18 |
| T28S S53A D106S | Ctrl | 0.61 / 0.80 / 0.38 / 0.26 / 0.53 / 0.80 | 1 of 18 (2.14) |
| N30S S31E S63L T104A D106H | Ctrl | nd / nd / nd / 2.05 / nd / 2.39 | 0 of 18 |
| L29V T104C F105D | Ctrl | nd / nd / nd / nd / nd / nd | 0 of 18 |
| N30E D106S | Ctrl | nd / nd / nd / nd / nd / nd | 0 of 18 |
| F27K R56E A101N T104Q | Ctrl | nd / nd / nd / 2.27 / nd / nd | 1 of 18 (2.62) |
| S63V R100Q | Ctrl | nd / nd / nd / nd / nd / nd | 0 of 18 |
| A101T T104R | Ctrl | nd / 1.86 / 1.91 / nd / nd / nd | 1 of 18 (2.75) |
| A101R | Ctrl | nd / nd / nd / nd / nd / nd | 0 of 18 |
| T28E S31D R100E A101R | Ctrl | nd / 0.06 / 0.39 / 0.85 / 0.52 / 0.40 | 0 of 18 |
| S53A R56L G61I G103V | Ctrl | nd / nd / nd / nd / nd / nd | 0 of 18 |
| F27E T28S L29I | Ctrl | 2.15 / 2.97 / nd / nd / 3.37 / 3.30 | 2 of 18 (2.50) |
| A102Y | Ctrl | nd / nd / nd / nd / nd / nd | 0 of 18 |
| N30M S31Q S63A G99L R100Y A101I | Ctrl | nd / nd / nd / nd / nd / nd | 0 of 18 |
| T28H L29V N30Q S31M G61V A102V | Ctrl | nd / nd / nd / nd / nd / nd | 0 of 18 |
| T28N G61I | Ctrl+GPLM_Gen | 1.04 / 1.57 / 0.86 / nd / 0.88 / nd; 2.11 / 1.32 / 1.29 / 1.96 / 2.09 / 2.19 | 1 of 36 (2.13) |
| F27T R57T K65E | Ctrl | nd / nd / nd / 2.61 / nd / nd | 0 of 18 |
| T28H N30M F59S | Ctrl | nd / nd / 1.90 / 2.33 / nd / nd | 0 of 18 |

The opening 4 entries, copied out:

| changes | group | replicates, log10 nM | control signals |
|---|---|---|---|
| S53A G61A F105S | Ctrl | nd / nd / 1.88 / nd / nd / nd | 1 of 18 (2.47) |
| T28M S107Q | Ctrl | nd / nd / nd / nd / nd / nd | 0 of 18 |
| G26K V64E S107T | Ctrl | 1.24 / nd / nd / nd / nd / nd | 0 of 18 |
| Y32H I34R A102S | Ctrl | nd / nd / 3.21 / nd / nd / nd | 0 of 18 |

Of ten entries with the parent sequence, four were seen in most replicates (averages 0.34 to 2.37), three in one and three in none, so single entries are noisy.
Where one sequence has several entries in the source, the replicates are listed entry by entry, parted by semicolons.
The range of this assay differs from that of the first round, and the authors advise against merging the two.
As a blank, each scFv also met three strains without target: over all heavy chain designs, 1% of these pairings were detected, typically at 2.08 and seldom below 0.84. Also given: how often the same scFv was detected with the empty control strains, with their mean in brackets.